# Assay: Measurement of ε365 and ε365/ε313 of compound β (molar absorption coefficients in acetonitrile)
# Type: physicochemical
# Set-up: key to ε365 of Compound β: molar absorption coefficient at 365 nm in (cm·mol/L)^−1
# [1] = molar absorption coefficient to light of 365 nm in acetonitrile
# [2] = molar absorption coefficient to light of 365 nm, in acetonitrile
Structure (SMILES),ε365 of Compound β [1],ε365 of Compound β [2],ε365 (molar absorption coefficient to light having a wavelength of 365 nm) (in acetonitrile)
"Cc1cc(C)c2c(C)cc(C)nc2c1 [2,4,5,7-Tetramethylquinoline]",<10 (cm·mol/L)^−1,<10 (cm·mol/L)^−1,
O=C(c1ccccc1)c1ccncc1 [4-Benzoylpyridine],,,69 (cm·mol/L)^−1
"CCCCc1ncc(C)c2ccccc12 [Example 1-n-Butyl-4-methylisoquinoline, 1-n-Butyl-4-methylisoquinoline]",<10 (cm·mol/L)^−1,<10 (cm·mol/L)^−1,
"CCCCc1nccc2ccccc12 [Example 1-n-Butylisoquinoline, 1-n-Butylisoquinoline]",<10 (cm·mol/L)^−1,<10 (cm·mol/L)^−1,
"Clc1ccccn1 [Example 2-Chloropyridine, 2-Chloropyridine]",<10 (cm·mol/L)^−1,<10 (cm·mol/L)^−1,
"COc1cc(C)nc2ccccc12 [Example 2-Methyl-4-methoxyquinoline, 2-Methyl-4-methoxyquinoline]",<10 (cm·mol/L)^−1,<10 (cm·mol/L)^−1,
"Nc1ccncc1 [Example 4-Aminopyridine, 4-Aminopyridine]",<100 (cm·mol/L)^−1,<100 (cm·mol/L)^−1,
"Cc1c2ccccc2nc2ccccc12 [Example 9-Methylacridine, 9-Methylacridine]",6300 (cm·mol/L)^−1,6300 (cm·mol/L)^−1,
"c1ccc(-c2c3ccccc3nc3ccccc23)cc1 [Example 9-Phenylacridine, 9-Phenylacridine]",>10000 (cm·mol/L)^−1,>1000 (cm·mol/L)^−1,
"c1ccc2cnccc2c1 [Example B1, isoquinoline]",<10 (cm·mol/L)^−1,<10 (cm·mol/L)^−1,<10 (cm·mol/L)^−1
"c1ccc2ncccc2c1 [Example B2, quinoline]",<10 (cm·mol/L)^−1,<10 (cm·mol/L)^−1,<10 (cm·mol/L)^−1
"c1ccc2nc3ccccc3cc2c1 [Example B3, acridine]",4900 (cm·mol/L)^−1,4900 (cm·mol/L)^−1,4900 (cm·mol/L)^−1
"CCCCc1nccc2ccccc12 [Example B4, 1-n-butylisoquinoline]",,,<10 (cm·mol/L)^−1
"CCCCc1ncc(C)c2ccccc12 [Example B5, 1-n-butyl-4-methylisoquinoline]",,,<10 (cm·mol/L)^−1
"Cc1nccc2ccccc12 [Example B6, 1-Me-isoquinoline]",<10 (cm·mol/L)^−1,<10 (cm·mol/L)^−1,<10 (cm·mol/L)^−1
"Cc1cc(C)c2c(C)cc(C)nc2c1 [Example B7, 2,4,5,7-tetramethylquinoline]",,,<10 (cm·mol/L)^−1
"COc1cc(C)nc2ccccc12 [Example B8, 2-methyl-4-methoxyquinoline]",,,<10 (cm·mol/L)^−1
"Cc1c2ccccc2nc2ccccc12 [Example B9, 9-methylacridine]",,,6300 (cm·mol/L)^−1
"c1ccc(-c2c3ccccc3nc3ccccc23)cc1 [Example B10, 9-phenylacridine]",,,>10000 (cm·mol/L)^−1
"c1ccncc1 [Example B11, pyridine]",<10 (cm·mol/L)^−1,<10 (cm·mol/L)^−1,<10 (cm·mol/L)^−1
"Cc1cc(C)c2ccccc2n1 [Example B12, 2,4-dimethylquinoline]",<10 (cm·mol/L)^−1,<10 (cm·mol/L)^−1,<10 (cm·mol/L)^−1
"Nc1ccncc1 [Example B13, 4-aminopyridine]",,,<100 (cm·mol/L)^−1
"CCn1c2ccc(C(=O)c3ccccc3C)cc2c2cc(C(C)=NOC(C)=O)ccc21 [OXE-02, etanone,1-[9-ethyl-6-(2-methylbenzoyl)-9H-carbazol-3-yl]-,1-(O-acetyloxime)]",,,2700 (cm·mol/L)^−1
"CSc1ccc(C(=O)C(C)(C)N2CCOCC2)cc1 [Omn907, 2-methyl-1-(4-methylthiophenyl)-2-morpholinopropan-1-one]",,,120 (cm·mol/L)^−1
c1ccc2c(c1)cnc1ccccc12 [Phenanthridine],,,500 (cm·mol/L)^−1

# Reference: US20230038201A1, “TRANSFER FILM, PHOTOSENSITIVE MATERIAL, PATTERN FORMING METHOD, MANUFACTURING METHOD OF CIRCUIT BOARD, AND MANUFACTURING METHOD OF TOUCH PANEL” (FUJIFILM Corporation, priority 2020, published 2023)
